# In patent US8012466B2, “Immunogenic compositions for activating γδ T cells” (priority 2008, dated 2011):
# “And” between values parts separate entries of the source, which are not always exact repeats. Equal entries are not always repeated. Where two headings read alike, the source gives them in different places.
# Legend:
# Vγ2Vδ2 T cell clone [1] = conditions: cited from earlier work
# Vγ2Vδ2 T cell clone [2] = tested on: Vγ2Vδ2 T cell clone
# Vγ2Vδ2 T cell clone [3] = test: cells; conditions: Homo sapiens, read-out: concentration giving half-maximal antigen-induced proliferation (one unit of bioactivity)
smiles,measurement,setting,value
"CC(C=O)CCOP(=O)(O)OP(=O)(O)O (stereo not drawn) [3-FBPP, 3-formyl-1-butyl pyrophosphate]",EC50,"Vγ2Vδ2 T cell clone [1]; high stimulatory activity previously reported, read-out: stimulatory activity EC50% previously reported",5 to 50 nM
same,EC50,"Vγ2Vδ2 T cell clone [1]; synthetic 3-FBPP (ref 35), read-out: stimulatory activity EC50%",~3000 nM
"C/C(=C\COP(=O)(O)OP(=O)(O)O)CO [HMBPP, (E)-4-hydroxy-3-methyl-but-2-enyl pyrophosphate]",fold more potent/antigenic than IPP,"Vγ2Vδ2 T cell clone [2]; molar basis, Vγ2Vδ2 T cell clones","~30,000 fold"
same,EC50,"Vγ2Vδ2 T cell clone [2]; read-out: concentration giving half-maximal antigen-induced proliferation (one unit of bioactivity), Vγ2Vδ2 T cell clone, usually DG.SF68 or CP.1.15",0.0316 nM
same,EC50,"Vγ2Vδ2 T cell clone [2]; read-out: concentration stimulating ½ max proliferation, synthetic HMBPP, Vγ2Vδ2 T cells in vitro",0.0316 nM and ~0.03 nM
"C=C(C)CCO[P@@](=O)(O)OP(=O)(O)O [IPP, isopentenyl pyrophosphate]",EC50,Vγ2Vδ2 T cell clone [3],3000 nM
